Values joined by “and” are separate entries in the source; they are usually repeats but may differ in a detail not shown here. Equal entries are not always repeated.
Columns and labels:
acetyl-α-tubulin (AcTub) = assay: In cellulo selectivity testing, western blot of acetyl-α-tubulin in U937 cells; format: cell-based, human; settings: SAHA 5 μM, 1f 20-60 μM, 18 hours
acetyl-histone H3 (AcH3) = assay: In cellulo selectivity testing, western blot of acetyl-histone H3 in U937 cells; format: cell-based, human; settings: SAHA 5 μM, 18 hours
HDAC6 = target: T1, HDAC6 (Homo sapiens, UniProt Q9UBN7); assay: ELISA-based HDAC activity assay, HDAC6; format: biochemical
T1 sequence (Q9UBN7 1-1215): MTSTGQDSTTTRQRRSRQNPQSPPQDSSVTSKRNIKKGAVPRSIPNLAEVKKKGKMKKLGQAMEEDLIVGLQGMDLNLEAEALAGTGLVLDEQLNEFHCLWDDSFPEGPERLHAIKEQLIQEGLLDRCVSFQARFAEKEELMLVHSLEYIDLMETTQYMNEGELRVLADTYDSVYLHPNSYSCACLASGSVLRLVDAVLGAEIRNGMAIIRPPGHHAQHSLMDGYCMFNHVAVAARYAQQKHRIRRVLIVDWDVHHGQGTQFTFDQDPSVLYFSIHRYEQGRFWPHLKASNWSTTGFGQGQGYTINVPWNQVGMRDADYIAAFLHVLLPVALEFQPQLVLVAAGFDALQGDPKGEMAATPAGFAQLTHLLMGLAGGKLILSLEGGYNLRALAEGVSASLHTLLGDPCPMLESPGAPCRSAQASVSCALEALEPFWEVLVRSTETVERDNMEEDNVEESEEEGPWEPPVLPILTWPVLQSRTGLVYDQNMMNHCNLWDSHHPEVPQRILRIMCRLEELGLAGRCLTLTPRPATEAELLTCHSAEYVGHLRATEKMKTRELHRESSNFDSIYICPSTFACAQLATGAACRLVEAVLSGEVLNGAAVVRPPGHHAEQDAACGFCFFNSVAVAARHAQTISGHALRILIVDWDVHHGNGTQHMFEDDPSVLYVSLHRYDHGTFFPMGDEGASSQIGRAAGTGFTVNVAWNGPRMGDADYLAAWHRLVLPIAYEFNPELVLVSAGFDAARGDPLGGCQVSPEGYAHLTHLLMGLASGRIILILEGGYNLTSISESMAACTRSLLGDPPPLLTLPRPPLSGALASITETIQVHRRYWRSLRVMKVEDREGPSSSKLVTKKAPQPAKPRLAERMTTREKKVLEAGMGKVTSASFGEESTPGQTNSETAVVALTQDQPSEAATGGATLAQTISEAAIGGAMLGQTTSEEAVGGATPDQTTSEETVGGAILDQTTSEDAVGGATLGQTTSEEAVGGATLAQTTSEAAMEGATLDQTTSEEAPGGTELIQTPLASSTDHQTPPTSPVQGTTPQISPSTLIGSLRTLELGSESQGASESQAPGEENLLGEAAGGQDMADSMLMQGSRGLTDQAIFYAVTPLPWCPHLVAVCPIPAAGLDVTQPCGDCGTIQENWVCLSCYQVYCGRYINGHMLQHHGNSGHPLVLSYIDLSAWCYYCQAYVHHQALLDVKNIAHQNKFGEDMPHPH

HDAC8 = target: T2, HDAC8 (Homo sapiens, UniProt Q9BY41); assay: Recombinant HDAC8 inhibition; format: biochemical; settings: from IC50 values
T2 sequence (Q9BY41 1-377): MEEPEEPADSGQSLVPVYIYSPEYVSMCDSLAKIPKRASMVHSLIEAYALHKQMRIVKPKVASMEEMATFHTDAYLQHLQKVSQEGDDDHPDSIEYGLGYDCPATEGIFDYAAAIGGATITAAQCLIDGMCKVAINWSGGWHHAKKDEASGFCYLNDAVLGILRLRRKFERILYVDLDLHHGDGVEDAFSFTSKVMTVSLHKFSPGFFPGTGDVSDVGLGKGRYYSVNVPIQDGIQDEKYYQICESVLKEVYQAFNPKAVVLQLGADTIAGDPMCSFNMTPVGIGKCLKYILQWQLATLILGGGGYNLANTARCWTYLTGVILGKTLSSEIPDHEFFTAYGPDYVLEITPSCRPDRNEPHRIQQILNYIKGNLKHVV

## O=C(CCCCCCC(=O)Nc1ccccc1)NO [SAHA, Suberoylanilide hydroxamic acid, reference compound]
acetyl-α-tubulin (AcTub)
  levels of acetyl-α-tubulin (HDAC6 substrate): increased levels
acetyl-histone H3 (AcH3)
  levels of acetyl-histone H3 (Class I HDAC substrate): increased levels

## CCCCC(CCCC(=O)Nc1ccccc1)CCC(=O)NO (stereo not drawn) [Compound 1c, 4-butyl-N^1-hydroxy-N^8-phenyloctanediamide]
HDAC6; 1a-f at 0.75, 0.75, 2.5, 1.25, 2.5, and 5 μM, SAHA at 1 μM
  isoform selectivity in single concentration screen (HDAC6 versus HDAC1, 2, 3): greatest difference in potency
HDAC6; from IC50 values
  HDAC6 selectivity over HDAC1, 2, and 3: at least 170 fold
  fold selectivity for HDAC6 and HDAC8 over HDAC1, 2, and 3: 170- to 480 fold and 170- to 310 fold
HDAC8
  HDAC8 selectivity over HDAC1, 2, and 3: at least 200 fold

— paper PMC5890937 (European journal of medicinal chemistry, 2017)
